Measured values: ChEMBL document CHEMBL4342477, “Single Nucleotide Polymorphisms in the Melanocortin His-Phe-Arg-Trp Sequences Decrease Tetrapeptide Potency and Efficacy” (ACS Med Chem Lett, 2020)

The chains behind the UniProt entries cited, without tags or fusion partners. Where a name states a change or a piece, a line headed by the entry shows the natural chain unless it says otherwise.
UniProt Q01727: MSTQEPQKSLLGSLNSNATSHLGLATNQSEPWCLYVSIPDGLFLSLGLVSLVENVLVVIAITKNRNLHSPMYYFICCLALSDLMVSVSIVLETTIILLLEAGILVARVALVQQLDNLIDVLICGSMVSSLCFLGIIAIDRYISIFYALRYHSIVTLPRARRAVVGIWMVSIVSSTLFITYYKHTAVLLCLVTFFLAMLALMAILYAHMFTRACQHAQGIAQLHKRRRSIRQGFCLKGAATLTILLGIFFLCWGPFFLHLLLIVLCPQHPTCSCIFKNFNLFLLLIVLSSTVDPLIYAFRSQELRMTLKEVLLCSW

Target: Melanocyte-stimulating hormone receptor (Mus musculus, UniProt Q01727)
Assay: Agonist activity at mouse melanocortin receptor 1 expressed in HEK293 cells assessed as stimulation of cAMP accumulation incubated for 2 hrs by cAMP AlphaScreen assay
Assay type: functional, cell-based

EC50 [µM] | Structure (SMILES)
0.016 | CC(=O)N[C@@H](Cc1cnc[nH]1)C(=O)N[C@H](Cc1ccccc1)C(=O)N[C@@H](CCCN=C(N)N)C(=O)N[C@@H](Cc1c[nH]c2ccccc12)C(N)=O
3 | CC(=O)N[C@@H](Cc1c[nH]cn1)C(=O)N[C@@H](Cc1ccccc1)C(=O)N[C@@H](CCCN=C(N)N)C(=O)N[C@@H](Cc1c[nH]c2ccccc12)C(N)=O
